Literature values as cited in PMC3726058 (European journal of pharmacology, 2010).

Tested on: σ1 subtype relative to σ2
Conditions: ref Yous et al., 2005

CCCc1ccc2c(c1)sc(=O)n2CCN1CCCCCC1 [SN56, 3-(2-(azepan-1-yl)ethyl)-6-propylbenzo[d]thiazol-2(3H)-one]
selectivity for σ1 relative to σ2: > 1,000 fold
